Results from ChEMBL document CHEMBL1134723, “Synthesis and evaluation of the sunflower derived trypsin inhibitor as a potent inhibitor of the type II transmembrane serine protease, matriptase” (Bioorg Med Chem Lett, 2001).

Molecular target: T1, Suppressor of tumorigenicity 14 protein (Homo sapiens, UniProt Q9Y5Y6)
T1 sequence (Q9Y5Y6 whole entry): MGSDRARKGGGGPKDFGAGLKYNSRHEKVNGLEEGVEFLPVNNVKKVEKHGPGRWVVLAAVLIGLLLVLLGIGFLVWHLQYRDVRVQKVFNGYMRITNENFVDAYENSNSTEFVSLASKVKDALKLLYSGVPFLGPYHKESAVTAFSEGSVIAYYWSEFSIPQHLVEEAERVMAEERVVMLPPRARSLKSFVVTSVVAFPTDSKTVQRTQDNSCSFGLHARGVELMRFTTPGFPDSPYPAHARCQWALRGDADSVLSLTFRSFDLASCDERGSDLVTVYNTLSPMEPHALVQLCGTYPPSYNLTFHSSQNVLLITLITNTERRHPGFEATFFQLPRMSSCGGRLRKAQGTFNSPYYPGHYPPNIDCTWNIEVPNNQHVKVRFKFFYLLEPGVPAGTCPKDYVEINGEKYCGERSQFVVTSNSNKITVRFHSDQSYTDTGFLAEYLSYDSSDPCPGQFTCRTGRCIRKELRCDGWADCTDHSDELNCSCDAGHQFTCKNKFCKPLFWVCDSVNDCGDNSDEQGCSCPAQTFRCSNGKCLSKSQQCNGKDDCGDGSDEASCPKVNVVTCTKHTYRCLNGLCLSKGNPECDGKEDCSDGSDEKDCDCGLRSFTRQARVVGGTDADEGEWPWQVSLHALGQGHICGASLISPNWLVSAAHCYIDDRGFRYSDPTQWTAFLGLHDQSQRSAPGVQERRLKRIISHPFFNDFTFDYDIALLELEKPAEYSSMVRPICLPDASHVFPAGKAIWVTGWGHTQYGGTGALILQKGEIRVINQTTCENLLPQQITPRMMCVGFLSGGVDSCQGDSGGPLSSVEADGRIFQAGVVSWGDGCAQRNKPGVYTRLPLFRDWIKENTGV
Conditions: cancer cell lines

CC[C@H](C)[C@@H]1NC(=O)[C@@H]2CCCN2C(=O)[C@@H]2CCCN2C(=O)[C@H]([C@@H](C)CC)NC(=O)[C@H](CO)NC(=O)[C@H](CCCCN)NC(=O)[C@H]([C@@H](C)O)NC(=O)[C@@H]2CSSC[C@H](NC1=O)C(=O)N[C@@H](Cc1ccccc1)C(=O)N1CCC[C@H]1C(=O)N[C@@H](CC(=O)O)C(=O)NCC(=O)N[C@@H](CCCNC(=N)N)C(=O)N2
Ki: 920 pM
